{"sequences": {"note": "Chains of the proteins cited; added tags and fusions are not shown. A line that says so, or that is headed by a name, gives the form on record, which may keep a tag or linker.", "mVEGFR1 D3-Fc protein (Myc-mVEGFR1 D3-Human IgG1 Fc), WT CH3, one chain, as listed by the source": "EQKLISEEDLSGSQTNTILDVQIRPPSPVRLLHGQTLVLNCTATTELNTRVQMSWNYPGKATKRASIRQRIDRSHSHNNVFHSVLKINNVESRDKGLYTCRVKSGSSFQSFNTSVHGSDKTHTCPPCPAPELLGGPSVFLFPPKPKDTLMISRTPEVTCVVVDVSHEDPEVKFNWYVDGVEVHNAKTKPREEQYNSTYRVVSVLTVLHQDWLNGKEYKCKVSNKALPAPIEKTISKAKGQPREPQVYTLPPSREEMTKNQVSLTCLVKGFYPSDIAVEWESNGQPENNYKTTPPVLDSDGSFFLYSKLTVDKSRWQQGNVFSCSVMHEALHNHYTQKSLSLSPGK"}, "source": "patent US20180009908", "biological_target": "mVEGFR1 D3-Fc protein (Myc-mVEGFR1 D3-Human IgG1 Fc), WT CH3", "assay": "TR-FRET with Eu/Cy5 Fabs on HEK293F supernatants; relative FRET, not quantitative (footnote d)", "note": "“And” between values parts separate entries of the source, which are not always exact repeats. Equal entries are not always repeated.", "data": [{"protein": "hEGFR D3-Fc protein (Myc-EGFR D3-Human IgG1 Fc), WT CH3 (protein) EQKLISEEDLSGSEERKVCNGIGIGEFKDSLSINATNIKHFKNCTSISGDLHILPVAFRGDSFTHTPPLDPQELDILKTVKEITGFLLIQAWPENRTDLHAFENLEIIRGRTKQHGQFSLAVVSLNITSLGLRSLKEISDGDVIISGNKNLCYANTINWKKLFGTSGQKTKIISNRGENSCKATGQVCHALCSPEGCWGPEPRDCVSCRNVSRGRECVDKGS[human IgG1 Fc not given here]", "values": [{"measurement": "% heterodimer (FRET signal)", "result": "58% and 56.6%"}]}]}
